Results as given in patent US20200239587A1, “SENSITIZATION OF TUMORS TO THERAPIES THROUGH ENDOGLIN ANTAGONISM” (Cedars-Sinai Medical Center, priority 2016, published 2020).

How the values were obtained:
[1] = tested on: androgen receptor variants and RNPC1; assay: Androgen receptor variants and RNPC1 expression; type: cell-based; conditions: enzalutamide
[2] = tested on: CW22Rv1 cells in 3D co-culture with mouse prostatic fibroblasts; assay: 3D co-culture epithelial proliferation, EpCam and Ki-67 FACS; type: cell-based, human; conditions: enzalutamide vs vehicle; p<0.01
Protocol: A modified version of the 3D organotypic co-culture system was performed in a collagen matrix similar to that previously reported (Stark et al., 1999, J Invest Dermatol 112, 681-691). Collagen matrix gels were prepared by mixing five volumes of rat tail collagen I with two volumes of matrigel (NCI), one volume of 10× DMEM medium (GE Healthcare Life Sciences), and one volume of FBS (Atlanta Biologicals), Rv1 and primary mouse prostatic fibroblasts were combined in a 1:3 ratio. Nylon squares were coated with collagen and placed on metal grids in a 6-well plate. Gel plugs (150 μl) were transferred onto the nylon squares and media was added to the level of the nylon mesh. After 72 hours, the cells were dissociated from the matrix with collagenase and dispersed for FACS analysis.
FACS experiments were performed with eBiosciences antibodies: anti-human Stro-1-FITC (340105), anti-human CD90-PE (12-0909-42), anti-human CD105-APC (17-1057-41), anti-mouse CD105-APC (17-1051-82), anti-human CD117-PE-Cy7 (15-1178-41), anti-human Ki67-PECy7 (25-5699-41), and anti-human EpCAM-PE (12-9326-41). All events were acquired on a BD LSRII flow cytometer in the Cedars-Sinai Medical Center FACS core installed with BD FACSDiva software. Files were analyzed using FlowJo software v10.2. […]

In the case of CNC(=O)c1ccc(N2C(=S)N(c3ccc(C#N)c(C(F)(F)F)c3)C(=O)C2(C)C)cc1F [enzalutamide, reference compound], the RNPC1 expression [1] is reported as “up regulates RNPC1 expression” and the CW22Rv1 proliferation index [2] is reported as “doubled”.
